Where two headings read alike, the source gives them in different places.
Tests used:
[1] = for Percent ketoprofen released: liver S9, 4 hr, 37°C
[2] = Caco-2 homogenate; for Percent ketoprofen released / Percent niacin released: 4 hr, 37°C
[3] = test system: ASBT-MDCK monolayers; details: for passive permeability / Pp ×10^6(cm/s): absence of sodium; for passive permeability: ASBT-MDCK; for Pp ×10^6(cm/s): passive permeability, mean (±SEM) of three measurements; for passive permeability share of total prodrug uptake: when [S] = ½ Kt

Substance	Percent ketoprofen released ([1]; 1 μM CDCA-lysine-ketoprofen) [%]	Percent ketoprofen released ([1]; 1 μM CDCA-lysine-ketoprofen, listed as ketoprofen prodrug) [%]	Percent ketoprofen released ([1]; 5 μM CDCA-lysine-ketoprofen) [%]	Percent ketoprofen released ([1]; 5 μM CDCA-lysine-ketoprofen, listed as ketoprofen prodrug) [%]	Percent ketoprofen released ([2]; 1 μM CDCA-lysine-ketoprofen) [%]	Percent ketoprofen released ([2]; 5 μM CDCA-lysine-ketoprofen) [%]	passive permeability [3] [×10⁻⁶ cm/s]	passive permeability relative to CDCA-lysine-niacin ([3]; higher) [fold]	Pp ×10^6(cm/s) [3]	passive permeability share of total prodrug uptake [3] [%]	prodrug degraded ([1]; 1 μM niacin prodrug, liver homogenate, after 4 hr)	Percent niacin released ([2]; 1 μM CDCA-lysine-niacin) [%]	Percent niacin released ([2]; 1 μM CDCA-lysine-niacin, listed as niacin prodrug) [%]	Percent niacin released ([2]; 5 μM CDCA-lysine-niacin) [%]	Percent niacin released ([2]; 5 μM CDCA-lysine-niacin, listed as niacin prodrug) [%]	prodrug degradation ([2]; niacin prodrug, after 4 hr) [%]
CDCA-lysine-ketoprofen	24.5	24.5	12.2	12.2	5.94	3.73	6.38	20	6.38(±0.44) ×10^6(cm/s)	44.1	–	–	–	–	–	–
CDCA-lysine-niacin	–	–	–	–	–	–	0.367	–	0.367(±0.023) ×10^6(cm/s)	10.3	About 30.3%	69.4	69.4	26.9	26.9	41.7

Reference: PMC2912288 (International journal of pharmaceutics, 2010)
